Laboratory results: patent publication US12576087B2, “Aryloxypiperidine pyrazole compounds as indoleamine 2,3-dioxygenase inhibitors” (Merck Sharp & Dohme LLC, priority 2018, dated 2026)

Sequences of proteins named here, by UniProt entry; tags and fusion partners are left off.
UniProt P14902, whole entry: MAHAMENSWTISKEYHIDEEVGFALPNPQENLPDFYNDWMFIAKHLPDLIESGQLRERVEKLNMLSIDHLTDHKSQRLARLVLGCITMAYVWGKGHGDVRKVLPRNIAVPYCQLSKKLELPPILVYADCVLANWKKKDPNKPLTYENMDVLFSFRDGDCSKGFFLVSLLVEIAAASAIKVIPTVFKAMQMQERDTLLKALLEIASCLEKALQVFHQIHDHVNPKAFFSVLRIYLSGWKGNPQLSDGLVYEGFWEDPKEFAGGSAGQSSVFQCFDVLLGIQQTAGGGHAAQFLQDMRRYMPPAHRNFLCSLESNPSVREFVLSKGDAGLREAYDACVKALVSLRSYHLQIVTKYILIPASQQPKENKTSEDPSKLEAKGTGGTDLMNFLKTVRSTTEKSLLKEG

Biological target: IDO1 (Homo sapiens, UniProt P14902)
Test: IDO1 Cellular Assay in HeLa Cells Stimulated with IFNγ
Format: cell-based
Conditions: HeLa cells stimulated with IFNγ 100 ng/mL, about 48 hours

| SMILES | EC50 [nM] |
| --- | --- |
| C[C@@H]1CN(C(=O)c2nn(CC(=O)N3CCC(Oc4ncccc4OC(F)(F)F)CC3)c3c2CCC3)C[C@H](C)O1 [Example 111, 2-{3-[(2R,6S)-2,6-dimethylmorpholine-4-carbonyl]-5,6-dihydrocyclopenta[c]pyrazol-1(4H)-yl}-1-(4-{[3-(trifluoromethoxy)pyridin-2-yl]oxy}piperidin-1-yl)ethan-1-one] | 139 |
| C[C@@H]1CN(C(=O)c2nn(CC(=O)N3CCC(Oc4ccc(C#N)cc4)CC3)c3c2CCC3)C[C@H](C)O1 [Example 112, 4-{[1-({3-[(2R,6S)-2,6-dimethylmorpholine-4-carbonyl]-5,6-dihydrocyclopenta[c]pyrazol-1(4H)-yl}acetyl)piperidin-4-yl]oxy}benzonitrile] | 180 |
| CC(C)c1ccccc1OC1CCN(C(=O)Cn2nc(C(=O)N3C[C@@H](C)O[C@@H](C)C3)c3c2CCC3)CC1 [Example 113, 2-{3-[(2R,6S)-2,6-dimethylmorpholine-4-carbonyl]-5,6-dihydrocyclopenta[c]pyrazol-1(4H)-yl}-1-{4-[2-(propan-2-yl)phenoxy]piperidin-1-yl}ethan-1-one] | 261 |
| Cc1ccccc1OC1CN(C(=O)Cn2nc(C(=O)N3C[C@@H](C)O[C@@H](C)C3)c3c2CCC3)C1 [Example 114, 2-{3-[(2R,6S)-2,6-dimethylmorpholine-4-carbonyl]-5,6-dihydrocyclopenta[c]pyrazol-1(4H)-yl}-1-[3-(2-methylphenoxy)azetidin-1-yl]ethan-1-one] | 292 |
| C[C@@H]1CN(C(=O)c2nn(CC(=O)N3CCC(OCc4ccccc4)C(F)(F)C3)c3c2CCC3)C[C@H](C)O1 (stereo partly drawn) [Example 120, 1-[4-(benzyloxy)-3,3-difluoropiperidin-1-yl]-2-{3-[(2R,6S)-2,6-dimethylmorpholine-4-carbonyl]-5,6-dihydrocyclopenta[c]pyrazol-1(4H)-yl}ethan-1-one] | 270 |

The next compounds have a lower EC50 than those just listed; values first:

| EC50 [nM] | SMILES |
| --- | --- |
| 129 | C[C@@H]1CN(C(=O)c2nn(CC(=O)N3CCC(Oc4cccc5ccccc45)CC3)c3c2CCC3)C[C@H](C)O1 [Example 109, 2-{3-[(2R,6S)-2,6-dimethylmorpholine-4-carbonyl]-5,6-dihydrocyclopenta[c]pyrazol-1(4H)-yl}-1-{4-[(naphthalen-1-yl)oxy]piperidin-1-yl}ethan-1-one] |
| 129 | C[C@@H]1CN(C(=O)c2nn(CC(=O)N3CCC(Oc4cccc(C(F)(F)F)c4)CC3)c3c2CCC3)C[C@H](C)O1 [Example 110, 2-{3-[(2R,6S)-2,6-dimethylmorpholine-4-carbonyl]-5,6-dihydrocyclopenta[c]pyrazol-1(4H)-yl}-1-{4-[3-(trifluoromethyl)phenoxy]piperidin-1-yl}ethan-1-one] |
| 3.03 | Cc1ccccc1OC1CCN(C(=O)Cn2nc(C(=O)N3C[C@@H](C)O[C@@H](C)C3)c3c2CCC3)CC1 [Example 116, 2-{3-[(2R,6S)-2,6-dimethylmorpholine-4-carbonyl]-5,6-dihydrocyclopenta[c]pyrazol-1(4H)-yl}-1-[4-(2-methylphenoxy)piperidin-1-yl]ethan-1-one] |
| 7.03 | C[C@@H]1CN(C(=O)c2nn(CC(=O)N3CCC(Oc4ccc(F)cc4Cl)CC3)c3c2CCC3)C[C@H](C)O1 [Example 117, 1-[4-(2-chloro-4-fluorophenoxy)piperidin-1-yl]-2-{3-[(2R,6S)-2,6-dimethylmorpholine-4-carbonyl]-5,6-dihydrocyclopenta[c]pyrazol-1(4H)-yl}ethan-1-one] |
| 31.5 | Cc1ccccc1CC1CCN(C(=O)Cn2nc(C(=O)N3C[C@@H](C)O[C@@H](C)C3)c3c2CCC3)CC1 [Example 118, 2-{3-[(2R,6S)-2,6-dimethylmorpholine-4-carbonyl]-5,6-dihydrocyclopenta[c]pyrazol-1(4H)-yl}-1-{4-[(2-methylphenyl)methyl]piperidin-1-yl}ethan-1-one] |
| 39.4 | C[C@@H]1CN(C(=O)c2nn(CC(=O)N3CCC(Cc4ccccc4)CC3)c3c2CCC3)C[C@H](C)O1 [Example 119, 1-(4-benzylpiperidin-1-yl)-2-{3-[(2R,6S)-2,6-dimethylmorpholine-4-carbonyl]-5,6-dihydrocyclopenta[c]pyrazol-1(4H)-yl}ethan-1-one] |
